PABP1 MLLE inh = inhibitors of PABP1 MLLE–PAM2 peptide binding, primary screen, biochemical, fluorescence polarization, FITC-PAM2, GST-MLLE; inhibition, % at 20 µM; 0.36% of 360,000 active; AID 588489, 2011; in the data active means inhibition above about 35%, passing the limit was not always enough;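 further: plate controls were DMSO wells with GST-MLLE for no effect and wells lacking GST-MLLE protein for full effect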
eIF4H FP inh = human eIF4H binding inhibitors, primary screen, translation initiation inhibitor project, biochemical, uHTS, fluorescence polarization; AID 2012, 2009; Eukaryotic translation initiation factor 4H (Homo sapiens), Q15056; inhibition, % at 35 µM; 0.94% of 290,000 active; eIF4H fluorescence polarization binding assay;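 further: calls also rest on retests at 20 µM and on dose response follow-up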
UUG fidelity = modulators of start codon recognition fidelity in yeast; S. cerevisiae UUG-firefly luciferase reporter, luminescence/redox ratio; activity score, % at 18.7 µM; hit rate 0.13% among 350,000; AID 602363;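 active = replicate mean at a twofold rise or more, about +100% in these data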;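 note: firefly luciferase made from a UUG start codon reports start codon fidelity; reporter light over untreated wells divided by growth signal over untreated wells; some hits fall short of that in this replicate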
DSG3 Ab inh = inhibitors of pemphigus antibody binding to DSG3, primary screen, biochemical, bead-based, flow cytometry, scFv-GFP | Desmoglein-3 (Homo sapiens), P32926 | DSG3-coupled beads, scFv-anti-DSG3-GFP binding; hits give low values | binding (percent of control), % at 10 µM | 0.48% of 310,000 active | AID 588358, 2011;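 active means binding more than 3 SD below its plate's average and above zero; inconclusive means below that plate limit but binding exactly zero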;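 further: hits lower antibody fragment binding to DSG3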
PABP polyA inh = PABP poly(A) RNA binding inhibitors, primary screen, biochemical, fluorescence polarization, uHTS; Polyadenylate-binding protein 1 (Homo sapiens), P11940; calls only at 35 µM; 1% of 290,000 active;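 further: calls also rest on retests at 20 µM and on dose response follow-up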
The depositor's hits bear a star; i = inactive; ? = inconclusive; · = no result; + = active, no number; ! = repeats disagree. Compounds with a hit are over-represented: about 1.5% of the library has one in this group of screens. Unless noted, how the calls were made is not given here.

Chains of the proteins cited; added tags and fusions are not shown.
Polyadenylate-binding protein 1 (Homo sapiens), P11940, UniProt P11940, whole entry, looked up: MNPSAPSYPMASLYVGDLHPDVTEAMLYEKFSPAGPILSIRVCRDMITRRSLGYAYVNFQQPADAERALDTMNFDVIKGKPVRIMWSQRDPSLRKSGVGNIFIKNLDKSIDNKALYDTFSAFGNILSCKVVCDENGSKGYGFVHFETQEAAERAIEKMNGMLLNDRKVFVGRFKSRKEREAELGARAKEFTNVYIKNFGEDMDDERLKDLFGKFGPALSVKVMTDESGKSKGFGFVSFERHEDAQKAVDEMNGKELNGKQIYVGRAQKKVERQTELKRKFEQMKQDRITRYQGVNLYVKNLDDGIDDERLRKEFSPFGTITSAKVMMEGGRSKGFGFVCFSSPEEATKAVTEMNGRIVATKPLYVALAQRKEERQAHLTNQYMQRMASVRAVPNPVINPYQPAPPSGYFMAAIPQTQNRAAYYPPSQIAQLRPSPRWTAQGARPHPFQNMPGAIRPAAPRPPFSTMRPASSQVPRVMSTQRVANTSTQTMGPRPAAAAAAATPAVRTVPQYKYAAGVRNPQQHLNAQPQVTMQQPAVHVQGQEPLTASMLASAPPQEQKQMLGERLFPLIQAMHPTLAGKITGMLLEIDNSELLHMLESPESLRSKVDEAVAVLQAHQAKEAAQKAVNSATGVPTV

The first 3 compounds (preview)
[1] Cn1c(O)c(Cc2ccc(OCc3ccccc3)cc2)c(=O)n(C)c1=O
[2] CC(=NCCc1ccccc1)c1c(O)n(C)c(=O)n(C)c1=O
[3] COC(=O)[C@H]1[C@H](CO)[C@H]2Cn3c(ccc(C4=CCCC4)c3=O)[C@@H]1N2CC1CCCCC1
Compound	1	2	3
PABP1 MLLE inh	7.1	-3.3	·
eIF4H FP inh	3.0	-5.1	·
UUG fidelity	-14.8	·	8.6
DSG3 Ab inh	68.5*	·	·
PABP polyA inh	i	i	·

This part in full (from the top)
[1] Cn1c(O)c(Cc2ccc(OCc3ccccc3)cc2)c(=O)n(C)c1=O
[2] CC(=NCCc1ccccc1)c1c(O)n(C)c(=O)n(C)c1=O
[3] COC(=O)[C@H]1[C@H](CO)[C@H]2Cn3c(ccc(C4=CCCC4)c3=O)[C@@H]1N2CC1CCCCC1
[4] N#Cc1cccc(-c2ccc([C@H]3[C@H](CO)N4CCCCN(C(=O)Cc5ccccc5)C[C@@H]34)cc2)c1
[5] COc1ccc(CN2C(=O)NC(=O)/C(=C\c3ccco3)C2=O)cc1
[6] COc1ccc(CN2C(=O)NC(=O)/C(=C\c3cc(OC)c(OC)c(OC)c3)C2=O)cc1
Compound	1	2	3	4	5	6
PABP1 MLLE inh	7.1	-3.3	·	·	-58.4	11.2
eIF4H FP inh	3.0	-5.1	·	·	133.5	20.3
UUG fidelity	-14.8	·	8.6	1.1	3.3	·
DSG3 Ab inh	68.5*	·	·	·	67.2*	104.0
PABP polyA inh	i	i	·	·	i	i

[7] CC[n+]1c(-c2ccccc2)c2cc(N)ccc2c2ccc(N)cc21
[8] COc1ccc(C#Cc2ccc([C@H]3[C@H]4CN(C(=O)Cc5ccncc5)CCCCN4[C@H]3CO)cc2)cc1
[9] COC(=O)[C@@H]1[C@@H](CO)[C@@H]2Cn3c(ccc(-c4ccccc4)c3=O)[C@H]1N2CC1CC1
[10] Cc1ccc2[nH]c3c(c2c1)CN(C(=O)CN1C[C@H]2C[C@@H](C1)c1cccc(=O)n1C2)CC3
[11] C/C=C/c1ccc([C@H]2[C@H]3CN(C(=O)Cc4ccncc4)CCCCN3[C@H]2CO)cc1
[12] c1ccc2c(c1)-c1cccc3cccc-2c13
Compound	7	8	9	10	11	12
PABP1 MLLE inh	79.4*	·	·	15.8	·	5.2
eIF4H FP inh	·	·	·	69.3	·	·
UUG fidelity	·	11.3	9.5	-18.1	-5.5	-10.9
DSG3 Ab inh	89.2	·	·	111.0	·	96.3
PABP polyA inh	·	·	·	+	·	·

[13] c1ccc2c(c1)[IH]c1ccccc1-2
[14] CCOCCCn1c(N)c(C(=O)Nc2sc3c(c2C(=O)OC)CCCC3)c2nc3ccccc3nc21
[15] CCOC(=O)c1c(NC(=O)c2c(N)n(CCCOC)c3nc4ccccc4nc23)sc2c1CCCC2
[16] COc1ccc(C#Cc2ccc([C@H]3[C@@H](CO)N4CCCCN(C(=O)Cc5ccncc5)C[C@H]34)cc2)cc1
[17] COc1ccccc1OCCCn1cc(C=O)c2ccccc21
[18] O=Cc1cn(CCCOc2ccccc2)c2ccccc12
Compound	13	14	15	16	17	18
PABP1 MLLE inh	4.5	-2.3	4.0	·	9.6	-13.8
eIF4H FP inh	·	?	?	·	-0.7	?
UUG fidelity	151.3*	-8.2	-12.8	7.5	-11.7	·
DSG3 Ab inh	107.3	95.0	98.9	·	101.6	·
PABP polyA inh	·	i	+	·	i	+

[19] C/C=C/c1ccc([C@@H]2[C@@H](CO)N3CCCCN(C(=O)Cc4ccncc4)C[C@H]23)cc1
[20] O=C1/C(=C\c2cc3c(cc2Br)OCO3)N2CCC1CC2
[21] O=C1/C(=C/c2ccc3c(c2)OCO3)N2CCC1CC2
[22] O=C1CC(=O)N(c2cccc(C(F)(F)F)c2)C(=O)N1
[23] O=C1CC(=O)N(c2cccc(Br)c2)C(=O)N1
[24] NCCc1cc(O)c(O)cc1O
Compound	19	20	21	22	23	24
PABP1 MLLE inh	·	17.5	8.3	-19.9	-37.2	46.8*!
eIF4H FP inh	·	70.2*	7.1	5.7	76.8	·
UUG fidelity	-3.8	·	·	-2.0	-5.8	-8.3
DSG3 Ab inh	·	109.5	124.3	105.2	102.3	85.1
PABP polyA inh	·	+	i	i	+	·

[25] COc1ccc(C=C2C(=O)N(C)C(=O)N(C)C2=O)cc1CSc1ccccn1
[26] CCOC(=O)/C(CCCN(CC)CC)=N\O
[27] COc1ccc(C#Cc2ccc([C@H]3[C@@H](CO)N4CCCCN(C(=O)Cc5cccnc5)C[C@@H]34)cc2)cc1
[28] COc1ccc2c3c1OC1C(O)C=CC4C(C2)[N+](C)(C)CCC341 (stereo not drawn)
[29] COc1cccc(CC(=O)N2CCN(Cc3cccc(Cl)c3)CC2)c1
[30] COC(=O)C1=Nc2ccccc2/C1=C\c1c(O)n(C)c(=O)n(C)c1=O
Compound	25	26	27	28	29	30
PABP1 MLLE inh	11.7	-123.2	·	-31.6	-9.1	-24.6
eIF4H FP inh	?	4.6	·	48.1	6.1	62.8
UUG fidelity	-1.2	3.9	12.6	-8.5	6.8	-7.8
DSG3 Ab inh	102.6	94.7	·	87.4	-53.0*	105.9
PABP polyA inh	+	+	·	+	i	+

[31] CC=Cc1ccc2n(c1=O)C[C@H]1[C@H](CO)[C@@H](C(=O)OC)[C@@H]2N1CC1CC1 (mixture of isomers)
[32] CN(C)[C@@H]1C(=O)C(C(N)=O)=C(O)[C@@]2(O)C(=O)C3=C(O)c4c(O)cccc4[C@@](C)(O)[C@H]3[C@H](O)[C@@H]12
[33] CN(C)[C@@H]1C(=O)C(C(N)=O)=C(O)[C@@]2(O)C(=O)C3=C(O)c4c(O)cccc4[C@@](C)(O)C3C[C@@H]12 (stereo partly drawn)
[34] COc1ccc(CC2C(=O)NC(=O)NC2=O)c(OC)c1
[35] COc1ccc(CC2C(=O)N(C)C(=O)N(C)C2=O)c(OC)c1
[36] c1ccc(P(c2ccccn2)c2ccccn2)cc1
Compound	31	32	33	34	35	36
PABP1 MLLE inh	·	18.3	0.2	4.8	42.1*	44.0*
eIF4H FP inh	·	87.1*	·	8.0	-2.7	-0.1
UUG fidelity	-3.0	-9.5	-8.7	-17.5	-0.1	·
DSG3 Ab inh	·	44.9*!	109.3	113.2	102.2	104.9
PABP polyA inh	·	+	·	i	i	i

[37] S=C(c1ccc(Cl)cc1)N1CCOCC1
[38] COc1ccc(C#Cc2ccc([C@@H]3[C@@H](CO)N4CCCCN(C(=O)Cc5ccncc5)C[C@@H]34)cc2)cc1
[39] O=C1NC(=S)N(Cc2ccco2)C(=O)/C1=C\c1cccs1
[40] C=CCN1C(=O)/C(=C/c2cccs2)C(=O)NC1=S
[41] N#CCCn1cc(C(=O)NCc2ccccc2)c(-c2ccc3c(c2)OCCO3)n1
[42] N#CCCn1cc(C(=O)Nc2ccccc2Br)c(-c2ccc3c(c2)OCCO3)n1
Compound	37	38	39	40	41	42
PABP1 MLLE inh	44.4*	·	·	34.9	6.8	-9.0
eIF4H FP inh	-13.6	·	74.0	66.9	1.7	active
UUG fidelity	-13.4	-2.1	·	·	-7.1	·
DSG3 Ab inh	100.5	·	·	98.3	104.0	·
PABP polyA inh	i	·	i	+	i	i

[43] Cn1c(O)c(C(c2ccccn2)c2c(O)n(C)c(=S)n(C)c2=O)c(=O)n(C)c1=S
[44] Nc1cc2nc3ccccc3nc2cc1N
[45] CC(C)[N+](C)(CCC(C(N)=O)(c1ccccc1)c1ccccc1)C(C)C
[46] CCOC(=O)[C@@H]1[C@@H]2NC(=S)N[C@@]1(C)Oc1ccccc12
[47] O=C(O)CCn1cc(C=C2C(=O)NC(=S)NC2=O)c(-c2cc3ccccc3oc2=O)n1
[48] O=C(O)CCn1cc(C=C2C(=O)NC(=S)NC2=O)c(-c2ccccc2)n1
Compound	43	44	45	46	47	48
PABP1 MLLE inh	13.8	97.4	-27.9	·	11.4	41.9*
eIF4H FP inh	57.0*	90.8*	11.6*	·	-12.3	3.8
UUG fidelity	·	-8.7	0.4	3.2	·	·
DSG3 Ab inh	102.5	107.7	110.2	·	98.5	100.1
PABP polyA inh	i	+	i	·	i	i

[49] CN1CCC2(CC1)C(C#N)=C(N)NC(S)=C2C#N
[50] O=c1[nH]c(=S)[nH]c(O)c1/C=C1/C=c2ccccc2=N1
[51] Cc1cccc2c1=NC(=O)/C(=C/c1c(O)[nH]c(=O)[nH]c1=O)C=2
[52] O=C(c1ccccc1)c1ccc(N=Nc2c(O)[nH]c(=O)[nH]c2=O)cc1
Compound	49	50	51	52
PABP1 MLLE inh	-69.7	13.0	21.2	-3.5
eIF4H FP inh	55.2*!	69.1	-13.4	11.1
UUG fidelity	-31.4	-11.3	·	·
DSG3 Ab inh	91.8	82.8*	·	69.5*
PABP polyA inh	+	i	i	i
